From PubChem BioAssay AID1276 (Columbia University Molecular Screening Center, 2008)
The entries are a selection whose mix differs from that of the whole data set. Activity calls are given as the source filed them.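 How the source made its calls: active means activation above a set limit, based on mean plus 3 SD of controls (cut at about 140% in these data); inconclusive means one replicate above the limit, the other below; inactive means the rest.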

assay: activators of APP 5'UTR luciferase reporter, primary screen, SH-SY5Y cells (AID 1276); conditions: SH-SY5Y APP 5'UTR luciferase reporter, luminescence; at 2 µM; hits give high values; zero percent = DMSO vehicle wells

Structure (SMILES)	activation
O=[N+]([O-])c1cc([N+](=O)[O-])c(Nc2ccccn2)c([N+](=O)[O-])c1	inactive: -16.9%
